# Measurements: patent EP3795574A1, “SYNTHESIS AND USAGE OF 1,2-DIAMINODIAMANTANE PLATINUM(II) COMPLEXES” (Justus-Liebig-Universität Gießen, priority 2019, dated 2021)
# System: A2780cis
# Assay: Cellular viability assay (resazurin / Alamar Blue, 72 h), cisplatin-resistant variant
# Conditions: 72 h at 37 °C, compared to cisplatin, result in words
substance,measurement,value
"cis-[1,2-diaminodiamantane]dichlorideplatinum(II) [(R,R)-1]",cytotoxicity,superior cytotoxicity compared to cisplatin
